For this assay, the target named is T1, Recombinant human galectin-3 (Homo sapiens, UniProt P17931).
T1 construct: made in house; host or cells: Escherichia coli
The assay can be described thus: fluorescence polarization-based galectin-3 inhibition assay. The note with it: Calculated Kd. The format is binding. Here is the method: NMR-spectra were recorded with a Bruker DRX-400 instrument. Chemical shifts are given in ppm, with reference to internal residual solvent peaks. Chemical shifts and coupling constants were obtained from ^1H-NMR and proton resonances were assigned from COSY experiments. High-resolution FAB mass spectra (HRMS) were recorded with a JEOL SX-120 instrument. Fluorescence polarization experiments were performed on a PolarStar instrument (BMG, Offenburg; Germany). Column chromatography was performed on SiO2 (Matrex, 60 Å, 35-70 μm, Grace Amicon) and TLC was carried out on SiO2 60 F254 (Merck) with detection under UV light and developed with aqueous sulfuric acid. Concentrations were made using rotary evaporation with bath temperature at or below 40° C. CH2Cl2 and CH3CN were dried by distillation from CaH2. […]
To 100 μL of galectin-3 (1 μM) and a fluorescent probe (2-(fluorescein-5/6-yl-carbonyl)-aminoethyl 4-O-[3-O-(4-methoxy]benzyl)-β-D-galactopyranosyl]-β-D-glucopyranoside, 0.1 μM) were added inhibitor solution (3.2-10000 μM, 100 μL), the plate was incubated under slow rotary shaking in the dark for 5 minutes, and fluorescence polarization measured at room temperature. The fluorescence was measured from above in 96 well microtiter plates (black polystyrene, Costar, Corning, N.Y.) using a PolarStar instrument (BMG, Offenburg; Germany). […]

Protein sequences, listed by entry. Tags and fused reporters are not part of them.
UniProt P17931, whole entry: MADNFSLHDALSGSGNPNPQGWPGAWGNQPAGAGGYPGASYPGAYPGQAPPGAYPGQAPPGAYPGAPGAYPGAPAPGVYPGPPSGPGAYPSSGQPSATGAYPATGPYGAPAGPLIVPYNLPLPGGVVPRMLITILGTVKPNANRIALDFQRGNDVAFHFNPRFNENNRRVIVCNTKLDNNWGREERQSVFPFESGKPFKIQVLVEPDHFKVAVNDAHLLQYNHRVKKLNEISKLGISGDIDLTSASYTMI

The source of these data is patent US7700763B2, “3-triazolyl-galactoside inhibitors of galectins” (Forskarpatent I Syd AB, priority 2004, dated 2010).

`CNC(=O)c1cn([C@H]2[C@@H](O)[C@@H](CO)O[C@@H](O[C@H]3[C@H](O)[C@@H](NC(C)=O)[C@H](OC)O[C@@H]3CO)[C@@H]2O)nn1` [Compound 21, Methyl 3-(4-methylaminocarbonyl-1H-[1,2,3]-triazol-1-yl)-3-deoxy-β-D-galactopyranosyl-(1→4)-2-acetamido-2-deoxy-β-D-glucopyranoside]: the Kd (in general, the free concentration of one partner at which half of the binding sites on the other are occupied at equilibrium, for simple one-to-one binding) was 5.8 µM.
